Measured values as given in PubChem BioAssay AID588852 (The Scripps Research Institute Molecular Screening Center, 2011).
Only a part is listed here, and it is no random draw. The source made the active and inactive calls.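 The calls were made as follows: active = percent inhibition above its own plate's cutoff, namely the mean of that plate's compound wells plus 3 SD; inactive = the rest.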

Amino acid sequences for entries named in this document (tags omitted). A change or cut given only in a name is not applied to a line headed by its entry.
UniProt P11229: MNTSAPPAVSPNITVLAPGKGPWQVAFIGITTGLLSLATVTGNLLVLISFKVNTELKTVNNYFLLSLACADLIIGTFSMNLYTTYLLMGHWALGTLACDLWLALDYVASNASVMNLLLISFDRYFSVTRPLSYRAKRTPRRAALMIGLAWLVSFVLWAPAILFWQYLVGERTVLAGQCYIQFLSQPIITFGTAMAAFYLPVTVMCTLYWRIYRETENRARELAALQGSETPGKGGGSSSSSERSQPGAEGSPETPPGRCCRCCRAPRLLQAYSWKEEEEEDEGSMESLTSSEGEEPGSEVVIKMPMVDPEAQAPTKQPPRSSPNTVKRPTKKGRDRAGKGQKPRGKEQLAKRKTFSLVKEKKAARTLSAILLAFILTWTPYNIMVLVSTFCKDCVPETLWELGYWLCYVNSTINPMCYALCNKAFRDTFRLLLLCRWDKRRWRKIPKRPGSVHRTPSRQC

Molecular target: Muscarinic acetylcholine receptor M1 (Homo sapiens) (UniProt P11229)
Assay: CHRM1 blockers of acetylcholine calcium response – CHO-K1 cells, Fluo-8 calcium fluorescence, 1536-well, primary screen (AID 588852);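 also: peak over basal fluorescence ratio during 140 s after agonist addition; 0% = ACh EC80 plus DMSO and 100% = DMSO alone without agonist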
Conditions: CHO-K1 hM1, Fluo-8 calcium fluorescence, ACh EC80 antagonist; at 3 µM; stronger effect = higher value

Row | Compound | inhibition
1 | CCOC(=O)c1ccc(NC(=O)C(C)(CCl)SC)cc1 (centres undefined) | inactive: -8.02%
2 | O=C(O)C(=O)c1ccc(N(CCCl)CCCl)cc1 | inactive: -7.28%
3 | O=C(Nc1ccncc1[N+](=O)[O-])c1ccc([N+](=O)[O-])cc1[N+](=O)[O-] | inactive: -3.46%
4 | COC(=O)C1(C)COP(=O)(N2CCCC2)OC1 (centres undefined) | inactive: -17.2%
5 | COP1(=S)c2c(C)nn(CCC#N)c2N=C(c2ccc(F)cc2)N1C (centres undefined) | inactive: -5.91%
6 | O=[N+]([O-])c1cc(Oc2ccc([N+](=O)[O-])cc2C(F)(F)F)cc([N+](=O)[O-])c1 | inactive: -11.3%
7 | COc1ccc(N/C(=N/P(=O)(N2CCOCC2)N2CCOCC2)N2CCOCC2)cc1 | inactive: -6.67%
8 | O=P1(N(CCCl)CCCl)OCCCN1CCCl (centres undefined) | inactive: -5.75%
9 | O=P1(N(CCCl)CCCl)Nc2ccccc2N1 | inactive: -7.1%
10 | COc1cc(I)ccc1[As](=O)(O)O | inactive: -9.23%
11 | COc1ccc2nc(NP(=O)(c3ccccc3)c3ccccc3)sc2c1 | inactive: 2.7%
12 | Cc1c2c(nc3ccccc13)SC(C(Cl)Cl)C2 (centres undefined) | inactive: -6.97%
13 | Cc1cc(=O)[nH]c(N[N+](=O)[O-])n1 | inactive: -15.1%
14 | O=[N+]([O-])c1cc([N+](=O)[O-])c(-c2ccn[nH]2)s1 | inactive: 1.84%
15 | CC(C)NC(=O)NP(=O)(Oc1ccccc1)Oc1ccccc1 | inactive: -10%
16 | O=C(OC1CN2CCC1CC2)c1cccc2[nH]cnc12 (centres undefined) | inactive: -10.3%
17 | CCN(CC)C(=S)SC(NC=O)C(Cl)(Cl)Cl (centres undefined) | inactive: -22.6%
18 | ClCCSc1nnc(-c2cccnc2)o1 | inactive: -7.52%
19 | COC(=O)C1(C)COP(=O)(N2CCCCCC2)OC1 (centres undefined) | inactive: -13.9%
20 | CC(C)c1ccc(OP(=O)(Nc2ccccn2)Oc2ccccc2F)cc1 (centres undefined) | inactive: -0.15%
21 | CC(Cc1ccc(O)cc1)NCC(O)c1cc(O)cc(O)c1 (centres undefined) | inactive: -17.3%
22 | Cc1ccc(OP(=O)(Nc2ccc([N+](=O)[O-])cn2)Oc2ccc(C)cc2)cc1 | inactive: -7.53%
23 | Cc1ccc2nc3c(c(C)c2c1)CC(C(Cl)Cl)S3 (centres undefined) | inactive: -18.1%
24 | O=[N+]([O-])c1ccc(-c2cc([N+](=O)[O-])c(O)c([N+](=O)[O-])c2)cc1 | inactive: -11.8%

Row | Compound | inhibition
25 | C[As](=O)(O)c1cccc(C(=O)O)c1 | inactive: -3.78%
26 | O=[As](O)(c1ccc(O)cc1)c1ccccc1O | inactive: -2.83%
27 | Nc1cccc2ccc([As](=O)(O)O)cc12 | inactive: -7.01%
28 | CCN(N=Nc1nonc1N)c1nonc1N | inactive: -12.4%
29 | Cc1ccc(NP(=O)(Oc2ccccc2F)Oc2ccccc2F)nc1 | inactive: 18.9%
30 | CN(C(=O)Cc1ccc(Cl)c(Cl)c1)[C@H]1CCCC[C@@H]1N1CCCC1 | inactive: -13.5%
31 | Cc1cc(SC(NC(=O)c2ccc(F)cc2)C(Cl)(Cl)Cl)ncn1 (centres undefined) | inactive: 0.79%
32 | CCOP(=O)(Nc1ccccc1)OCC | inactive: 0.03%
33 | O=P(Nc1nc2ccc(Cl)cc2s1)(c1ccccc1)c1ccccc1 | inactive: 17.2%
34 | CN(C)P(=O)(N(C)C)n1c(Nc2ccccc2)nnc1-c1ccccc1 | inactive: -9.29%
35 | CCCC1OP(N)(=O)OCC1CC (centres undefined) | inactive: -17.3%
36 | CC(=O)O[C@]1(C)C(=O)OC/C2=C/CN(C)CCC(OC(=O)[C@@](O)(C(C)O)C[C@H]1C)C2=O (some centres undefined) | inactive: -3.93%
37 | CC(=O)Nc1ccc([As](=O)(O)O)cc1 | inactive: -8.53%
38 | O=C(O)c1ccccc1[As](=O)(O)O | inactive: -15.7%
39 | O=[N+]([O-])C1C(O)C(O)C([N+](=O)[O-])C(O)C1O (centres undefined) | inactive: -5.78%
40 | O=C(NC(Sc1ccncn1)C(Cl)(Cl)Cl)c1ccccc1 (centres undefined) | inactive: -6.01%
41 | Oc1ccccc1CNc1ccccn1 | inactive: -3.51%
42 | Nc1cc(N)c2nonc2c1[N+](=O)[O-] | inactive: -0.47%
43 | CC(C)CC(=O)NC(Sc1ccc(Cl)cc1)C(Cl)(Cl)Cl (centres undefined) | inactive: -12.4%
44 | CN1CCCC(OC(=O)C(c2ccccc2)c2ccccc2)C1 (centres undefined) | active: 97.7%
45 | Clc1ccc(Cl)c(NC2=NCC(CBr)S2)c1 (centres undefined) | inactive: -2.99%
46 | Cc1ccc(OP(=O)(Nc2nccs2)Oc2ccc(C)cc2)cc1 | inactive: -1.53%
47 | COc1ccccc1OP(=O)(Nc1ccc(C)cn1)Oc1ccccc1OC | inactive: 2.62%
48 | CC(C)[C@H]1C(=O)O[C@@H]2CCN3CC=C(COC(=O)[C@](C)(O)[C@]1(C)O)[C@H]23 | inactive: -1.05%

Row | Compound | inhibition
49 | Cc1ccc(N/C(=N/P(=O)(N2CCOCC2)N2CCOCC2)N2CCOCC2)cc1 | inactive: 16.2%
50 | CN(C(=O)Cc1ccc(Cl)c(Cl)c1)[C@H]1CCCC[C@H]1N1CCCC1 | inactive: -10.7%
51 | NC(=O)c1cc([N+](=O)[O-])cc([N+](=O)[O-])c1N | inactive: -1%
52 | CC1CCN(C(=O)Oc2c(Cl)cc(Cl)c3cccnc23)CC1 | inactive: -0.32%
53 | c1cc(-c2nn[nH]n2)ccc1-c1nn[nH]n1 | inactive: -10.7%
54 | CN(C)C(=O)OCCc1n(C)cc[n+]1C | inactive: -9.24%
55 | CC(C)c1nc(Nc2ccccc2)n(P(=O)(N(C)C)N(C)C)n1 | inactive: 3.86%
56 | CC(C)=N/N=C(\N)N[N+](=O)[O-] | inactive: -5.7%
57 | CCN(/C(=N/P(=O)(N1CCOCC1)N1CCOCC1)N1CCOCC1)c1ccc(OC)cc1 | inactive: 1.49%
58 | C[N+]1=C2C=CC=CC=C2SC12C([N+](=O)[O-])=CC([N+](=O)[O-])=C[C-]2[N+](=O)[O-] (centres undefined) | inactive: 20.7%
59 | Nc1ccc([As](=O)(O)c2ccc(N)cc2)cc1 | inactive: -9.86%
60 | CCc1nc2c(n1)c1c(non1O)c1c2no[n+]1[O-] | inactive: -0.02%
61 | O=[N+]([O-])c1cc([N+](=O)[O-])c(CCNc2ccccc2)c([N+](=O)[O-])c1 | inactive: 1.96%
62 | Cc1ccc(NP(=O)(Oc2ccccc2)Oc2ccccc2)nc1 | inactive: 21.4%
63 | O=[N+]([O-])c1cccc2n[nH]nc12 | inactive: -4.49%
64 | CC(=O)N1C2C3N(C(C)=O)C1C1N(C(C)=O)C(C(N1C(C)=O)N3C(C)=O)N2C(C)=O | inactive: -4.99%
65 | COc1ccc(C2=NCC(CBr)S2)cc1 (centres undefined) | inactive: -5.81%
66 | O=C(O)CNc1ccc([As](=O)(O)O)cc1 | inactive: 13.7%
67 | C/C=C1/C[C@@H](C)[C@](O)(CO)C(=O)OCC2=CCN3CC[C@@H](OC1=O)[C@@H]23 | inactive: -23.2%
68 | COC(=O)C1(C)COP(=O)(Nc2ccccc2)OC1 (centres undefined) | inactive: -10.5%
69 | O=[N+]([O-])c1cccc(NC2=NCC(CBr)S2)c1 (centres undefined) | inactive: -20.8%
70 | O=[N+]([O-])c1ncn(CCn2ncnc2[N+](=O)[O-])n1 | inactive: -3.23%
71 | CC(C)(C)C(=O)NC(Sc1ccncn1)C(Cl)(Cl)Cl (centres undefined) | inactive: -12.4%
72 | O=C(Nc1cc([As](=O)(O)O)ccc1O)c1ccccc1 | inactive: -13%

Row | Compound | inhibition
73 | O=P1(N(CCCl)CCCl)OCCCS1 (centres undefined) | inactive: -22%
74 | C(Cc1nn[nH]n1)Cc1nn[nH]n1 | inactive: -2.37%
75 | Nc1ccc([As](=O)(O)c2ccc([N+](=O)[O-])cc2)cc1 | inactive: -11.3%
76 | COc1ccc(CC2NCC(O)C2OC(C)=O)cc1 (centres undefined) | inactive: -25.1%
77 | O=[As](O)(c1ccccc1)c1ccc(O)cc1 | inactive: 2.6%
78 | O=[N+]([O-])c1ccc(O)c(/C=N/Nc2ccc([N+](=O)[O-])cc2[N+](=O)[O-])c1 | inactive: -16.4%
79 | O=[N+]([O-])c1ncn(CCn2cnc([N+](=O)[O-])n2)n1 | inactive: -6.47%
80 | CC(=O)NC(SC(=S)N(C)C)C(Cl)(Cl)Cl (centres undefined) | inactive: -8.29%
81 | C[C@H]1OP(=O)(Oc2ccccc2)[C@H](O)[C@H](O)[C@H]1N=[N+]=[N-] (some centres undefined) | inactive: -8.25%
82 | O=P(Nc1ccccn1)(c1ccc(Br)cc1)c1ccc(Br)cc1 | inactive: -5.61%
83 | COc1ccc(N)c([N+](=O)[O-])c1[N+](=O)[O-] | inactive: -2.77%
84 | Nc1ccc(CCCCOc2ccccc2)cc1 | inactive: -10.1%
85 | COc1ccc(C[C@H](C)NC[C@@H](O)c2ccc(O)c(NC=O)c2)cc1 | inactive: -12%
86 | c1nnnn1CCn1cnnn1 | inactive: -20.6%
87 | CC(C)C(=O)NC(Sc1ccccc1)C(Cl)(Cl)Cl (centres undefined) | inactive: -5.73%
88 | O=P(Nc1nccs1)(c1ccccc1)c1ccccc1 | inactive: -6.96%
89 | CC(=O)Nc1ccc(Oc2c([N+](=O)[O-])cc([N+](=O)[O-])cc2[N+](=O)[O-])cc1 | inactive: -4.1%
90 | CC(=O)Nc1ccc([As](=O)(O)O)c(O)c1 | inactive: -3.93%
91 | C[C@H]1OP(=O)(Oc2ccccc2)C[C@@H]2O[C@@H]21 (some centres undefined) | inactive: -18.1%
92 | C[C@@H]1C=CCP(=O)(Oc2ccccc2)O1 (some centres undefined) | inactive: -7.32%
93 | Cc1ccccc1CN(C)C(=O)COC(=O)C(O)(c1ccccc1)c1ccccc1 | inactive: -3.28%
94 | CCN(CC)CCOC(=O)C(O)(c1ccccc1)c1ccccc1 | active: 98.1%
95 | COC(=O)C1(C)COP(=O)(NCc2ccccc2)OC1 (centres undefined) | inactive: -4.44%
96 | CC1C(=O)OC2CCN3CC=C(COC(=O)C(C)(O)C1(C)O)C23 (centres undefined) | inactive: -5.1%

Row | Compound | inhibition
97 | CC(=O)c1ccc(N2CC2c2ccncc2)cc1 (centres undefined) | inactive: -10.1%
98 | N#C/C(=C\c1ccc(N(CCBr)CCBr)cc1)C(N)=O | inactive: -7.3%
99 | CC(C)(C)C(=O)NC(Sc1ccccc1)C(Cl)(Cl)Cl (centres undefined) | inactive: -3.66%
100 | CCc1cc(O)c([N+](=O)[O-])c(C)c1[N+](=O)[O-] | inactive: -17%
101 | CCOc1ccc(C2=NCC(CBr)S2)cc1 (centres undefined) | inactive: 0.69%
102 | O=P1(Nc2nc3ccc(Cl)cc3s2)COc2ccccc2O1 (centres undefined) | inactive: -1.48%
103 | O=c1c2cc([N+](=O)[O-])ccc2[nH]c2c([N+](=O)[O-])cc([N+](=O)[O-])cc12 | inactive: 8.03%
104 | CN(C)C(=O)Oc1noc2ccccc12 | inactive: -2.87%
105 | CC(NC(=O)COC(=O)C(O)(c1ccccc1)c1ccccc1)c1ccccc1 (centres undefined) | inactive: 6.81%
106 | Cc1ccccc1OP(=O)(Nc1ccccn1)Oc1ccccc1C | inactive: 13%
107 | CCN(C(=O)COC(=O)C(O)(c1ccccc1)c1ccccc1)c1c(N)n(Cc2ccccc2)c(=O)[nH]c1=O | inactive: -9.18%
108 | CCC(=O)N1C2C3N(C(=O)CC)C1C1N(C(=O)CC)C(C(N1C(=O)CC)N3C(=O)CC)N2C(=O)CC | inactive: -6.75%
109 | Clc1ccc(N2CCN(Cc3c[nH]c4ncccc34)CC2)cc1 | inactive: -7.46%
110 | Cc1ccc(OP(=O)(Nc2ccccn2)Oc2ccc(C)cc2)cc1 | inactive: -0.82%
111 | CC(=O)NC(SC(=S)N(CC(C)C)CC(C)C)C(Cl)(Cl)Cl (centres undefined) | inactive: -8.49%
112 | COC(=O)c1cc2c(s1)N=C(c1ccccc1)N(C)P2(=O)N1CCOCC1 (centres undefined) | inactive: -15.5%
113 | CC1C(=O)OC2CCN3CC4OC4(COC(=O)C(C)(O)C1(C)O)C23 (centres undefined) | inactive: -19.4%
114 | O=P1(N(CCCl)CCCl)OCCC2CCCCN21 (centres undefined) | inactive: -20.4%
115 | C=C1C(=O)OC2CCN3CC=C(COC(=O)C(C)(O)C4(CO4)C1C)C23 (centres undefined) | inactive: -0.58%
116 | Cc1ccc(NP(=O)(Oc2cccc(C)c2)Oc2cccc(C)c2)nc1 | inactive: -19.5%
117 | c1ccc(-c2nn[nH]n2)c(-c2nn[nH]n2)c1 | inactive: -12.2%
118 | CCNC(=S)/N=C(\N)N[N+](=O)[O-] | inactive: -2.53%
119 | O=C(NC1CCS(=O)(=O)C1)NP(=S)(Oc1ccccc1)Oc1ccccc1 (centres undefined) | inactive: 12%
